Assay outcomes from PubChem BioAssay.
Sampled rows, rich in hits. Any-hit rate of the full collection: about 1.8%.
E-sel inducer – E-selectin induction on HUVECs; P16581; HUVEC E-selectin immunofluorescence imaging; normalized: neutral wells 0, TNF-alpha wells 100; activation, % at 7.58 µM; 0.37% of 260,000 active; AID 686992;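 active = mean E-selectin-positive cell signal at least 10% of the positive control, reached in at least 60% of replicates, without over 20% cell loss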
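Test system – human umbilical vein endothelial cells (HUVEC), E-selectin induction · Input – 3,000 HUVEC seeded per well · Buffer or medium – EGM-2, gelatin · Compound dosing – single-point compound dose · Detection – immunofluorescence imaging · Measure – percent E-selectin-positive cells · Controls – TNF-alpha high, DMSO low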
Yeast UUG start – modulators of start codon recognition fidelity in yeast | S. cerevisiae UUG-firefly luciferase reporter, luminescence/redox ratio | activity score, % at 18.7 µM | 350,000 tested, 0.13% active;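 active = replicate mean at a twofold rise or more, about +100% in these data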;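 also: firefly luciferase made from a UUG start codon reports start codon fidelity; reporter light over untreated wells divided by growth signal over untreated wells; some hits fall short of that in this replicate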
AF4-AF9 inh – blocks AF4 peptide binding to human AF9; P42568; AlphaScreen, biotin-AF4 peptide binding to FLAG-AF9; inhibition, % at 10 µM; 0.47% of 350,000 active;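 active = every replicate reaching a set inhibition limit, whatever the replicate mean, cut at about 25% in these data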
SIRT5 inh – sirtuin-5 (human) deacylase inhibition | 1.1% of 330,000 active | Purified SirT5, succinyl-peptide AMC, trypsin-coupled fluorescence | Q9NXA8 | inhibition, % at 15 µM; in the data active = inhibition above about 15%
RAD54 branch – inhibitors of human RAD54 branch migration; Q92698; RAD54 Holliday junction branch migration, FAM/BHQ fluorescence; inhibition, % at 10.4 µM; 0.14% of 360,000 active; AID 602329;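 active = mean normalized replicate activity at least 40 and at least half of replicates scoring 40 or more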;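 note: inhibitors cause a drop in the FAM fluorescence signal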
RAD52 inh – RAD52 (human) annealing inhibition; P43351; recombinant RAD52 DNA annealing, FRET fluorescence; inhibition, % at 18.7 µM; 0.46% of 360,000 active;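 active = every replicate showing at least 50% inhibition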
Hits are given with their value.

For COc1cccc(CN2CC(C(=O)N3CCCCCCC3)CCC2=O)c1 (stereo unspecified) the results were Yeast UUG start inactive, AF4-AF9 inh inactive, SIRT5 inh inactive, RAD54 branch inactive and RAD52 inh inactive.
For O=C1CCC(C(=O)N2CCCCCC2)CN1Cc1cccc(C(F)(F)F)c1 (stereo unspecified) the results were E-sel inducer inactive, Yeast UUG start inactive, AF4-AF9 inh inactive, SIRT5 inh 18.1, RAD54 branch inactive and RAD52 inh inactive.
`CCCC(=O)N1CCC2(CC1)CN(C(=O)c1ccc(F)cc1)[C@@H](CO)c1[nH]c3cc(OC)ccc3c12` gave E-sel inducer inactive, AF4-AF9 inh inactive, SIRT5 inh inactive and RAD52 inh inactive.
`Cc1ccc(/C=C/C(=O)N2CCN(c3cccc(C(F)(F)F)c3)CC2)cc1` gave AF4-AF9 inh inactive, SIRT5 inh 30.0 and RAD52 inh inactive.
`Cc1ccc(C)c(C(=O)CCC(=O)N2CCN(c3cccc(C(F)(F)F)c3)CC2)c1` gave E-sel inducer inactive, Yeast UUG start inactive, AF4-AF9 inh inactive, SIRT5 inh inactive, RAD54 branch inactive and RAD52 inh inactive.
`COc1ccc(NC(=O)N2C[C@@H](O)COC[C@H]3O[C@H](CC(=O)N4CCCCC4)CC[C@@H]32)cc1` gave E-sel inducer inactive, Yeast UUG start inactive, AF4-AF9 inh inactive, SIRT5 inh inactive, RAD54 branch inactive and RAD52 inh inactive.
`O=C(C[C@@H]1CC[C@@H]2[C@H](COC[C@@H](O)CN2Cc2ccc3c(c2)OCO3)O1)N1CCOCC1` gave E-sel inducer inactive, Yeast UUG start inactive, AF4-AF9 inh inactive, SIRT5 inh 27.0, RAD54 branch inactive and RAD52 inh inactive.
COc1ccc(NC(=O)N2C[C@H](O)COC[C@@H]3O[C@@H](CC(=O)N4CCCCC4)CC[C@H]32)cc1 was read as E-sel inducer inactive, Yeast UUG start inactive, AF4-AF9 inh inactive, SIRT5 inh 25.4, RAD54 branch inactive and RAD52 inh inactive.
For O=C(C[C@H]1CC[C@H]2[C@@H](COC[C@@H](O)CN2Cc2cccc(Cl)c2)O1)N1CCCCC1 the results were E-sel inducer inactive, AF4-AF9 inh inactive, SIRT5 inh 18.6, RAD54 branch inactive and RAD52 inh inactive.
`COc1ccc(CN2C[C@@H](O)COC[C@@H]3O[C@H](CC(=O)N4CCc5ccccc5C4)CC[C@H]32)cc1` gave E-sel inducer inactive, Yeast UUG start inactive, AF4-AF9 inh inactive, SIRT5 inh 17.1, RAD54 branch inactive and RAD52 inh inactive.
For C[C@H]1CN([C@@H](C)CO)S(=O)(=O)c2ccc(-c3ccccc3)cc2O[C@H]1CN(C)C(=O)C1CC1 the results were E-sel inducer inactive and Yeast UUG start inactive.
Screening Cn1cnc(CCNC(=O)C[C@@H]2CC[C@@H]3[C@H](COC[C@H](O)CN3C(=O)C3CCCC3)O2)c1 returned E-sel inducer inactive, Yeast UUG start inactive, AF4-AF9 inh inactive, SIRT5 inh 23.9, RAD54 branch inactive and RAD52 inh inactive.
O=C(C[C@@H]1CC[C@@H]2[C@H](COC[C@H](O)CN2C(=O)Nc2ccc(F)cc2)O1)NCCCN1CCOCC1 was read as E-sel inducer inactive, AF4-AF9 inh inactive, SIRT5 inh inactive, RAD54 branch inactive and RAD52 inh inactive.
O=C(C[C@@H]1CC[C@H]2[C@@H](COC[C@@H](O)CN2C(=O)Nc2ccc(F)cc2)O1)NCCCN1CCOCC1 was read as E-sel inducer inactive, AF4-AF9 inh 30.7, SIRT5 inh inactive, RAD54 branch inactive and RAD52 inh inactive.
`Cn1cnc(CCNC(=O)C[C@@H]2CC[C@H]3[C@@H](COC[C@@H](O)CN3C(=O)C3CC3)O2)c1` gave E-sel inducer inactive, AF4-AF9 inh inactive, SIRT5 inh inactive, RAD54 branch inactive and RAD52 inh inactive.
CN1CCN(C(=O)C[C@H]2CC[C@H]3[C@@H](COC[C@@H](O)CN3Cc3ccc(Oc4ccccc4)cc3)O2)CC1 was read as E-sel inducer inactive, Yeast UUG start inactive, AF4-AF9 inh inactive, SIRT5 inh inactive, RAD54 branch inactive and RAD52 inh inactive.
Screening CCCN1[C@H](C(=O)OC)[C@@H](CO)[C@@H]2Cn3c(ccc(-c4ccccc4OC)c3=O)[C@@H]21 returned E-sel inducer inactive, AF4-AF9 inh inactive, SIRT5 inh inactive, RAD54 branch inactive and RAD52 inh inactive.
`CO[C@H]1CN(C)C(=O)c2cc(NC(=O)C3CC3)ccc2OC[C@H](C)N(C(=O)c2cccnc2)C[C@@H]1C` gave E-sel inducer inactive, AF4-AF9 inh inactive, SIRT5 inh inactive, RAD54 branch inactive and RAD52 inh inactive.
Screening S=c1nccc(-c2cccs2)[nH]1 returned E-sel inducer inactive, Yeast UUG start inactive, AF4-AF9 inh inactive, SIRT5 inh 15.2, RAD54 branch inactive and RAD52 inh inactive.
For C[C@@H]1CCCCO[C@H](CN(C)C(=O)C2CCCCC2)[C@@H](C)CN([C@@H](C)CO)C(=O)c2cc(NC(=O)Nc3cccc4ccccc34)ccc2O1 the results were E-sel inducer inactive, Yeast UUG start inactive, AF4-AF9 inh inactive, SIRT5 inh inactive, RAD54 branch inactive and RAD52 inh inactive.
Screening CCCCNC(=O)N1CCN(Cc2ccc(F)cc2)CC1 returned AF4-AF9 inh inactive, SIRT5 inh 20.2 and RAD52 inh inactive.
Cc1c(C)n(C)c2ccc(C(=O)NCCN3CCOCC3)cc12 was read as E-sel inducer inactive, Yeast UUG start inactive, AF4-AF9 inh inactive, SIRT5 inh 33.7, RAD54 branch inactive and RAD52 inh inactive.
Screening CC(=O)N1[C@@H](CO)[C@@H](c2ccc(C3=CCCC3)cc2)C12CN(C(=O)NC(C)C)C2 returned E-sel inducer inactive, AF4-AF9 inh inactive, SIRT5 inh inactive and RAD52 inh inactive.
For O=C(Nc1ccc2c(c1)OCO2)N[C@H]1CC[C@@H](CCNC(=O)C2CCCCC2)O[C@H]1CO the results were E-sel inducer inactive, Yeast UUG start inactive, AF4-AF9 inh inactive, SIRT5 inh inactive, RAD54 branch inactive and RAD52 inh inactive.
CC(NC(=O)/C(C#N)=C/c1ccco1)c1ccccc1 (stereo unspecified) was read as E-sel inducer inactive, Yeast UUG start inactive, AF4-AF9 inh inactive, SIRT5 inh inactive, RAD54 branch inactive and RAD52 inh inactive.
CC(NC(=O)/C(C#N)=C/c1ccc([N+](=O)[O-])o1)c1ccccc1 (stereo unspecified) was read as E-sel inducer 41.8, Yeast UUG start inactive, AF4-AF9 inh inactive, SIRT5 inh inactive, RAD54 branch inactive and RAD52 inh inactive.
COc1ccc2c3c(n(C)c2c1)[C@H](CO)N(C(=O)Cc1ccccn1)CC31CCN(C)CC1 was read as E-sel inducer inactive, AF4-AF9 inh inactive and RAD52 inh inactive.
O=C(c1c(F)cccc1F)N(Cc1ccccc1)Cc1ccccc1 was read as E-sel inducer 31.7, Yeast UUG start inactive, AF4-AF9 inh inactive, SIRT5 inh inactive, RAD54 branch inactive and RAD52 inh inactive.
